ChEMBL document CHEMBL4622988, “Elucidation of Mechanism for Ligand Efficacy at Leukotriene B4 Receptor 2 (BLT2)” (ACS Med Chem Lett, 2020)
Calls of active or inactive are those of the source. The calls are words filed in the database; no cut-off is given here.

Target: T1, Leukotriene B4 receptor 2 (Homo sapiens) (UniProt Q9NPC1)
T1 sequence (whole entry): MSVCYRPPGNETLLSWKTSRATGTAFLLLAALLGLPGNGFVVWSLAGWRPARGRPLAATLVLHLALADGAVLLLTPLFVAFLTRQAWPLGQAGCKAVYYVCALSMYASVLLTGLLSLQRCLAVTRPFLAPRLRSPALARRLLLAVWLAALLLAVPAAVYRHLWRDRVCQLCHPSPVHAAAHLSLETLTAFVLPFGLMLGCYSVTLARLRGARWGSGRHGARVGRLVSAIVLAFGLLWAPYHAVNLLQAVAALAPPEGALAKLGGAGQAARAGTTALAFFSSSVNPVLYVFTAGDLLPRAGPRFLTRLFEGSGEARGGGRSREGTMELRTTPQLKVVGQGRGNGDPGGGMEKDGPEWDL
Test: Agonist activity at HA-epitope tagged human BLT2 expressed in CHOK1 cells assessed as induction of chemotactic motility incubated for 2 hrs by hematoxylin and eosin staining based optical microscopic method
Type: cell-based
Settings: CHO-K1

With `CCCCC(=O)N(Cc1ccc(-c2ccccc2C)cc1)c1ccccc1` the Activity was “inactive”.
